Reference: EP4847008A1, “COMPOSITION FOR PREVENTING HAIR LOSS, PROMOTING HAIR GROWTH OR INCREASING HAIR DENSITY” (dated 2026)

The chains behind the UniProt entries cited, without tags or fusion partners.
UniProt P31214, whole entry: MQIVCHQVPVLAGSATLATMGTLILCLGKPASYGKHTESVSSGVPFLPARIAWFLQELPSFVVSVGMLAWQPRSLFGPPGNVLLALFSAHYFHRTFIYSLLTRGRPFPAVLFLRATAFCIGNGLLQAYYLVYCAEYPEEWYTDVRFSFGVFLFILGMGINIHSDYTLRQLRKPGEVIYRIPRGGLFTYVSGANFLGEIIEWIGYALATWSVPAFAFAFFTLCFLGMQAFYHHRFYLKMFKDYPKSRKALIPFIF

Biological target: Type II 5α-reductase (Rattus norvegicus, UniProt P31214)
Experiment: Anti-hair loss efficacy test - 5α-reductase inhibition rate (testosterone peak area by HPLC)

CC(C)(C)NC(=O)[C@H]1CC[C@H]2[C@@H]3CC[C@H]4NC(=O)C=C[C@]4(C)[C@H]3CC[C@]12C
5α-reductase activity inhibition rate (%) (experiments at Guangzhou Chn-Alternative Biotechnology, finasteride solution 1 µmol/L in absolute ethanol): 79.79±0.33 % | 5α-reductase activity inhibition rate (%) (experiments at SINOLIGHT SLSAC, positive control, 1 µM finasteride solution, 37 °C, 30 min): 72.21%
